Measured values published in patent US12606802B2, “Methods and compositions for improving the assembly of adeno-associated viruses (AAVs)” (priority 2019, dated 2026).

Tested on: HEK293 cells
Conditions: 48 h

## apoptazole
300 uM
  cell morphology: clustered together toward the center of the well
Inhibitor 4 h post transfection
  cell morphology: drastic changes

Like-named read-outs stand apart in the source and are kept apart here.
